The target in test [1] is T1, ROCKII (1-543) (Homo sapiens (Human), UniProt O75116). Description: Luciferin-Luciferase Assay (Assay 1). The test is classed as biochemical. The conditions noted are these: luciferin-luciferase residual ATP; 750 nM ATP, 7.5 nM kinase. As to the method:
1. Luciferin-Luciferase Assay
The activity of ROCKII (1-543) kinase is measured utilizing Cambrex PKLight ATP Detection Reagent, a homogeneous assay technology using luciferin-luciferase to quantify residual ATP. The assay is performed in 384-well low-volume, white, non-binding surface microtiter plates (Corning). The assay buffer is 25 mM HEPES, pH 7.5, 10 mM MgCl2, 50 mM KCl, 0.2% BSA, 0.01% CHAPS, 100 μM Na3VO4 and 0.5 mM DTT. Test compounds, dissolved in neat DMSO at 500 μg/mL, are serially diluted for dose response for a final starting concentration of 3 μg/mL in 1% DMSO of assay buffer. ROCKII (1-543) (62,408 Da) is diluted in assay buffer to a final concentration of 7.5 nM in a total volume of 15 μL. Positive controls are reaction mixtures containing no test compound; negative controls (blanks) are reaction mixtures containing no kinase. After 15 minutes of pre-incubation of the test compounds with the kinase, a mixture of ATP and peptide substrate (AKRRRLSSLRA) in assay buffer is added to each well for a final concentration of 750 nM ATP and 500 nM peptide, respectively. After 90 minutes of incubation of the kinase reaction at 28° C. temperature, 10 μL of PKLight ATP Detection Reagent (warmed to room temperature previously) is added to each well. The assay plate is incubated at room temperature for additional 15 minutes and then read on an Analyst in luminescence mode. Dose-response experiments for each of the test compounds are conducted in quadruplet. IC50 values of test compounds represent 50% response of the positive control from the dose-response curve.

Protein sequences, listed by entry. Tags and fused reporters are not part of them. Residues count along the entry.
UniProt O75116, 1-543: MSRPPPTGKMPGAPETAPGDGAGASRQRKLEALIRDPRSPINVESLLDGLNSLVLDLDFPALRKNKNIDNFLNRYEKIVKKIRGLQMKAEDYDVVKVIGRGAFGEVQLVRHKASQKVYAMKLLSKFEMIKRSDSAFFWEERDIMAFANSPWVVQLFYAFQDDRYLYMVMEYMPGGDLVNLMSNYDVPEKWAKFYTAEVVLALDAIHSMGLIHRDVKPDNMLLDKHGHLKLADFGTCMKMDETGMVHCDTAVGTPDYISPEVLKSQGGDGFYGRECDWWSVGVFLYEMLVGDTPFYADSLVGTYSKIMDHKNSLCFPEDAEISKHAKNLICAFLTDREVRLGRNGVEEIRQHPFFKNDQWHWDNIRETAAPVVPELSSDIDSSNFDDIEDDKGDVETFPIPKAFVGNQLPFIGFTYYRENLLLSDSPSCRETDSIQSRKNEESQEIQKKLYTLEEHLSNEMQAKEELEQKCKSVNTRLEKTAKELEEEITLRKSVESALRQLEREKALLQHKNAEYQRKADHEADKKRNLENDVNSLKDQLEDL

Test [2] concerns the target T1, ROCKII (1-543). The test is described as follows: IMAP Assay (Assay 2). The test is classed as biochemical. The note with it: IMAP fluorescence polarization; 100 μM ATP, 1 nM kinase. As to the method: This assay is performed using FAM S6 substrate peptide (Catalogue #R7184) and IMAP FP Screening Express Kit detection reagents from Molecular Devices (Sunnyvale, Calif.) in IMAP kinase reaction buffer (Tris-HCl, pH 7.2, 10 mM MgCl2, 0.05% NaN3, 0.1% phosphate-free BSA) containing 1 mM DTT. Test compounds dissolved in neat DMSO at 0.3 mg/mL are serially diluted 1 to 3 for concentration response in 100% DMSO. The DMSO serial dilutions are further diluted 33.33-fold in kinase reaction buffer, and 10 μL of this buffer dilution is transferred to Corning black 96-well half area NBS plates for a final top concentration of 3 μg/mL in 1% DMSO. 10 μL aliquot of 3 nM ROCKII (1-543) diluted in kinase reaction buffer is added to each assay well for a final concentration of 1 nM kinase. […] The kinase reaction is stopped by addition of 60 μL IMAP progressive binding reagent (Catalog #R7284) diluted 400-fold in 1× Binding buffer A. After 30 min of incubation at room temperature, the plates are read for fluorescence polarization on Analyst Plate Reader using Ex 485 nm, Em 530 nm, and FL 505 dichroic minor. […]
Where A, B, C, and D are fitted parameters (parameter B is fixed at zero POC), and x and y are the independent and dependent variables, respectively. The IC50 is determined as the inflection point parameter, C.
On the technique in general: Fluorescence polarisation rises when a labelled molecule tumbles more slowly, as on binding a larger partner.

The results in this text go back to patent US8697911B2, “Rho kinase inhibitors” (Boehringer Ingelheim International GmbH, priority 2010, dated 2014).

For orientation: IC50 means the point on the concentration scale where inhibition reaches its midpoint. Read a high IC50 as a need for much substance.

Take `N[C@@H]1CCc2nc(NC(=O)c3cccc(CNC(=O)c4csc(-c5ccncc5)n4)c3)sc2C1` [compound 32]: half-maximal inhibition against ROCKII (1-543) [1] (IC50) was put at 1.8 nM.

Regarding `N[C@H]1CCc2nc(NC(=O)c3cccc(CNC(=O)c4csc(-c5ccncc5)n4)c3)sc2C1` [compound 34], the half-inhibitory concentration (IC50) on ROCKII (1-543) [2] and on ROCKII (1-543) [1] was 1.1 nM in each case. For the molecule `CN1CCc2ccc(NC(=O)c3cccc(CNC(=O)N4CCc5c(C#N)cccc54)c3)cc2C1` [compound 201, 4-cyano-2,3-dihydro-indole-1-carboxylic acid 3-(2-methyl-1,2,3,4-tetrahydro-isoquinolin-7-ylcarbamoyl)-benzylamide], the IC50 against ROCKII (1-543) [1] was determined as 6.9 nM. On ROCKII (1-543) [1], `CN1CCc2ccc(NC(=O)c3cccc(CNC(=O)c4nc(-c5cccnc5)cs4)c3)cc2C1` [compound 202] registered a half-maximal inhibitory concentration (IC50) of 11.9 nM.
